This note sets out measurements from paper PMC7026020.

Chains of the proteins cited; added tags and fusions are not shown. Chains listed by the source or under a name are the forms on record and can include a tag or linker. Residues count along the entry.
UniProt P02745, 23-245: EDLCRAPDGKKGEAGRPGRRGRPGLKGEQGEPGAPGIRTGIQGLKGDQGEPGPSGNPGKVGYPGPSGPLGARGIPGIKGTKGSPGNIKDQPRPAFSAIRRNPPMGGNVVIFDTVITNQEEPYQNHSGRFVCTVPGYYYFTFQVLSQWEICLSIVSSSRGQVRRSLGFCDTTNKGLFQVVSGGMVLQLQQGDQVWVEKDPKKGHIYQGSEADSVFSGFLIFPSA
C1q, UniProt P02746, 28-253: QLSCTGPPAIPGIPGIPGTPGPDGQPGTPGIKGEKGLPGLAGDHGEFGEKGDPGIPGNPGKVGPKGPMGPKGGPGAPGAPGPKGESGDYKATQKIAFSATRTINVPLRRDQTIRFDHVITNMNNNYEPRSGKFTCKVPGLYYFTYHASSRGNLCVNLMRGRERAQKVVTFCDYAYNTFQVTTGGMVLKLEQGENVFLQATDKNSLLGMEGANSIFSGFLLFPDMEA
C1q, UniProt P02747, 29-245: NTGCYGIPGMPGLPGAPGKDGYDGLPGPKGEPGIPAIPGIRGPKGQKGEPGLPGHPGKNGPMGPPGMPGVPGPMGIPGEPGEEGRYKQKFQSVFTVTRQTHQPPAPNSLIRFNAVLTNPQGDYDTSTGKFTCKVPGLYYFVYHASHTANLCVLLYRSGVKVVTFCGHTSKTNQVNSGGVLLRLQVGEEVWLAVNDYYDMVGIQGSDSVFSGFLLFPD
single-cleaved rituximab (human), heavy, as listed by the source, chain 1 of 2: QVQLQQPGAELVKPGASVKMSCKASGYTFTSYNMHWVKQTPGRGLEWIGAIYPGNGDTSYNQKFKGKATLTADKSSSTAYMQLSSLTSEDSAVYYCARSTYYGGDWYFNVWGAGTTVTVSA
single-cleaved rituximab (human), light, as listed by the source, chain 2 of 2: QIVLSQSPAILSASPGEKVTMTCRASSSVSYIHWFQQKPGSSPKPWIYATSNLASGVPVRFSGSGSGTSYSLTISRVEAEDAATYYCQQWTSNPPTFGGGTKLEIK
single-cleaved trastuzumab (human), light, as listed by the source, chain 2 of 2: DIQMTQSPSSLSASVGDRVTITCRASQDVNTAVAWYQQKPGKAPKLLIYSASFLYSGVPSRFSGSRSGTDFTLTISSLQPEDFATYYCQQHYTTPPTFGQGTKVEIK

Experiment [1] has as its target single-cleaved rituximab (human). As to the kind of experiment: ELISA.
Experiment [2] has as its target single-cleaved trastuzumab (human). As to the kind of experiment: ELISA. Background: ELISA stands for enzyme-linked immunosorbent assay.

With “C1q (from UniProt P02745 23-245; P02746 28-253; P02747 29-245) (complex)”, the fold decrease of binding against the intact counterpart in experiment [1] and in experiment [2] was 10 fold throughout.
